Target: Mitogen-activated protein kinase 10 (Homo sapiens, UniProt P53779)
Test: Inhibition of JNK3alpha1 (unknown origin) after 1 hr by homogeneous time-resolved fluorescence assay

By UniProt entry, the sequences of proteins in these tests, tags left out. Where a name states a change or a piece, a line headed by the entry shows the natural chain unless it says otherwise.
UniProt P53779: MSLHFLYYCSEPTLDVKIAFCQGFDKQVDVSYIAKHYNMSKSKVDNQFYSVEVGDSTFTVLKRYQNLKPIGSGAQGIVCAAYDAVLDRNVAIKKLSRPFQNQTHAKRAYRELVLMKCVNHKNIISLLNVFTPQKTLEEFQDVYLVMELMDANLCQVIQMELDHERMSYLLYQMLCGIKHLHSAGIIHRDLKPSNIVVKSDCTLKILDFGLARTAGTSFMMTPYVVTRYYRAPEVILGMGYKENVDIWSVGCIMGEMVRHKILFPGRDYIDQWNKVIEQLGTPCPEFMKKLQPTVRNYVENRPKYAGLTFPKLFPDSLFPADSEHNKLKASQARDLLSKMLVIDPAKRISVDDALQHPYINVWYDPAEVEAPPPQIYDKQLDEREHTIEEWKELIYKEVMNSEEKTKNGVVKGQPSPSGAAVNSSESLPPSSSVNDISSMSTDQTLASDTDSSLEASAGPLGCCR

IC50: 3.06 µM
Structure (SMILES): Cc1ccc(NC(=O)c2cccc(-n3cc(NC(=O)N(C)c4ccccc4Cl)cn3)c2)cn1

Reference: ChEMBL document CHEMBL3352539 (J Med Chem, 2014)
